Reference: patent publication US20240262833A1, “FUSED HETEROCYCLIC DERIVATIVES AS NEGATIVE ALLOSTERIC MODULATORS OF MGLU7 RECEPTOR” (Addex Pharma S.A., priority 2021, published 2024)

The chains behind the UniProt entries cited, without tags or fusion partners. Residues count along the entry.
UniProt Q14831, 35-922 isoform 2 limits assumed: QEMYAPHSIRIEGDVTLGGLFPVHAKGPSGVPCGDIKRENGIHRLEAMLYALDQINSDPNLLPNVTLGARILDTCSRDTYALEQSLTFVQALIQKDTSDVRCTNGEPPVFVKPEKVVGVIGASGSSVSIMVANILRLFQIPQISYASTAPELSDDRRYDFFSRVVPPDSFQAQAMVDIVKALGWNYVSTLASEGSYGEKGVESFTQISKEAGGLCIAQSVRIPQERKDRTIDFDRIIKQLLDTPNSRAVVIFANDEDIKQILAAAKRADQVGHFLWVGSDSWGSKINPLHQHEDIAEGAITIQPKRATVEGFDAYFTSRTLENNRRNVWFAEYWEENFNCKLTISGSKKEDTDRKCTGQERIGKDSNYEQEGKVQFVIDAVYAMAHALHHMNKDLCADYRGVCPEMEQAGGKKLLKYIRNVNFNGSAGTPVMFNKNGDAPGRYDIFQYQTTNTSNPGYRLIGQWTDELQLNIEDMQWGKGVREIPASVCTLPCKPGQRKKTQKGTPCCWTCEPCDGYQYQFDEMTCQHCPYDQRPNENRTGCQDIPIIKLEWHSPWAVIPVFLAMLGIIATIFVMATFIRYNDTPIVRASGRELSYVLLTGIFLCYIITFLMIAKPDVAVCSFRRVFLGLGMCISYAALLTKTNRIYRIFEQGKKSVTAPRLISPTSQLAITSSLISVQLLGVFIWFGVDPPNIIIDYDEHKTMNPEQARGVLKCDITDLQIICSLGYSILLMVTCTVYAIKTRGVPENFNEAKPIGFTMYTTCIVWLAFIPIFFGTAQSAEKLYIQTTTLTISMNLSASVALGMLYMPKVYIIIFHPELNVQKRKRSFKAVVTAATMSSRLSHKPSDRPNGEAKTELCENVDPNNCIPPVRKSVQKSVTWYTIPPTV

Biological target: human metabotropic glutamate 7 receptor (hmGlu7) (Homo sapiens, UniProt Q14831)
Experiment: mGlu7 assay on HEK-expressing human mGlu7: fluorescent cell based Ca2+ mobilization assay (FLIPR), inhibition of EC80 L-AP4 response
Details: read-out: Ca2+ Flux (mean IC50); HEK-293 cells expressing hmGlu7; EC80 L-AP4 stimulation; mean of at least three independent experiments in duplicate
Description: mGlu7 Assay on HEK-Expressing Human mGlu7
The cDNA encoding the human metabotropic glutamate 7 receptor (hmGlu7), (accession number NM_181874.2, NCBI Nucleotide database browser), was subcloned into an expression vector containing also the hygromycin resistance gene. In parallel, the cDNA encoding a G protein allowing redirection of the activation signal to intracellular calcium flux was subcloned into a different expression vector containing also the Puromycin resistance gene. Transfection of both these vectors into HEK293 cells with PolyFect reagent (Qiagen) according to supplier's protocol, and hygromycin and puromycin treatment allowed selection of antibiotic resistant cells which had integrated stably one or more copies of the plasmids. Positive cellular clones expressing hmGlu7 were identified in a functional assay measuring changes in calcium fluxes in response to glutamate and L-AP4 or known mGlu7 orthosteric antagonists. […]
After 10 s of basal fluorescence recording, various concentrations of the compounds of the invention were added to the cells. Changes in fluorescence levels were first monitored for 180 s in order to detect any agonist activity of the compounds. […]

Compound | IC50 [nM]
COc1cccc(-n2c(C)c3c(C)nn(-c4ccccn4)c(=O)c3c2C)c1 | 1000 to 10000
CCOC(=O)c1cccc(-n2c(C)c3cnn(-c4ccccc4)c(=O)c3c2C)c1 | 100 to 1000
